The test system of the data set is Mus musculus. As to the kind of experiment: Toxicity in CD-1 mouse assessed as motor impairment at 5 to 10 mg/kg, sc treated 30 mins prior to test by rotarod test. The note with it: in vivo, 0.5 h. A general note: The rotarod test checks motor coordination on a turning rod.

Turning to `CN(C(=O)Cc1ccc(Cl)c(Cl)c1)C1CCCCC1N1CCCC1` (stereo unspecified), the Activity entry is “Toxic”.

These data come from ChEMBL document CHEMBL4017505 (J Med Chem, 2017).
